Values quoted from earlier work in paper PMC7383075 (Journal of Nuclear Medicine, 2020).

Tested on: glioblastomas
Conditions: ref [31]
Excerpt: Contributing to the potential for clinical translation of this tracer is the use of the NIR fluorophore IRDye 800CW. This dye is widely used in the development of targeted fluorescence imaging approaches, and several studies already have shown the first successful clinical applications using this fluorophore. […] Also, IRDye 800CW coupled to the monoclonal antibody cetuximab was successfully used fo ...

## IRDye 800CW coupled to the monoclonal antibody cetuximab: IRDye 800CW coupled to the monoclonal antibody cetuximab
  detection of glioblastomas: successfully used for detection of glioblastomas
